5 molecules from the OPERA property sets (Mansouri et al. 2018) can be followed below.

A word on the logP: it is a log measure of how a compound divides between an organic and an aqueous phase. On to `Cc1nc([N+](=O)[O-])c([N+](=O)[O-])[nH]1`, for which the log partition coefficient (logP) came to 0.77.
In the case of `Cn1cc([N+](=O)[O-])nc1[N+](=O)[O-]` it was -0.17; in that of `Cn1cnc([N+](=O)[O-])c1[N+](=O)[O-]`, 0.41.
In the case of `O=[N+]([O-])c1cnc([N+](=O)[O-])[nH]1` it was 0.2.
Molecule `O=[N+]([O-])c1nc[nH]c1[N+](=O)[O-]` yielded a logP of 0.65.
